ChEMBL document CHEMBL1687890, “Design, synthesis, pharmacological evaluation, and structure-activity study of novel endomorphin analogues with multiple structural modifications” (J Med Chem, 2011)

By UniProt entry, the sequences of proteins in these tests, tags left out.
UniProt P33535, whole entry: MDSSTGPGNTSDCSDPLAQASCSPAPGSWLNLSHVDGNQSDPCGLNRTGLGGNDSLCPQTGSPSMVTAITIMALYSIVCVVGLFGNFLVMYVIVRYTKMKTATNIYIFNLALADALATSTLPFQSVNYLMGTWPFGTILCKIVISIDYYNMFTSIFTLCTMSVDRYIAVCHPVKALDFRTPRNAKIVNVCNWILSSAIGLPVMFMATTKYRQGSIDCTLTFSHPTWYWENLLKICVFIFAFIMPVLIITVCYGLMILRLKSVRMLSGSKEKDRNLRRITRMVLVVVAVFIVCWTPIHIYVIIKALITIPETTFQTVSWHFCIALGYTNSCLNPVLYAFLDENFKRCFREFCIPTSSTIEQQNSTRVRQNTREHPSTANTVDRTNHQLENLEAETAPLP

Target: Mu-type opioid receptor (Rattus norvegicus, UniProt P33535)
Assay: Agonist activity at mu opioid receptor in rat brain membrane by [35S]GTPgammaS binding assay
Assay type: functional, cell membranes

C[C@@H](NC(=O)[C@@H](N)Cc1ccc(O)cc1)C(=O)NCC(=O)N(C)[C@@H](Cc1ccccc1)C(=O)NCCO [DAMGO]
EC50: 214 nM
